Compounds with a hit are over-represented: about 13% of the library has one in this group of screens.
G9a inh: blocks human histone lysine methyltransferase G9a. Q96KQ7. G9a H3K9 monomethylation, AlphaScreen, 2 h. Potency, µM (highest dose often 102 µM), actives largely listed as inhibitors. 350,000 compounds, 8.8% hits. AID 504332; also: nearly all actives have a fitted effect of over 75% in size
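Readings reflect AlphaScreen signal from monomethyl-H3K9 antibody detection. HMT at 20 nM; substrate b-H3K9 500 nM; cofactor SAM 20 uM; 2 h RT reaction; compounds tested as titrations in qHTS with 15 min preincubation.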
ALDH1A1 inh: ALDH1A1 (human) enzyme inhibition | P00352 | Purified ALDH1A1, NADH fluorescence, propionaldehyde substrate | Potency, µM (doses to about 75.3 µM), most hits filed as inhibitors | 220,000 compounds, 7.3% hits | AID 1030; active = well fitted inhibition curve with a large enough effect, not every such curve was filed as active; inconclusive = small, poorly fitted or top-dose-only effect, or another doubt; inactive = no such curve, though single readings can be large or run the other way
KDM4E inh: JMJD2E (human) inhibition; AID 2147; Potency, µM (top dose mostly 57.1 µM), actives largely listed as inhibitors; 230,000 compounds, 1.6% hits; B2RXH2; JMJD2E catalytic domain, FDH-coupled NADH fluorescence (FDH is formaldehyde dehydrogenase); also: nearly all actives have a fitted effect of over 50% in size
Sfp PPTase inh: inhibitors of Bacillus subtilis Sfp phosphopantetheinyl transferase; Biochemical Sfp PPTase activity, qHTS; Potency, µM, usual class: inhibitors; 310,000 compounds, 3.5% hits;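 also: the enzyme is Sfp with the accession as filed and its product quenches rhodamine fluorescence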
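Buffer: 50 mM Hepes-Na pH 7.6, 10 mM MgCl2, 0.01% Nonidet P-40, 0.01% BSA. Enzyme 15 nM, pre-exposed to compound 15 min; substrates then added and fluorescence change tracked over 30 min.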
LMNA splice mod: changes lamin A minigene splicing in HeLa cells. HeLa LMNA splicing GFP/RFP minigene ratio, 48 h. Potency, µM (highest dose often 46.1 µM), most hits filed as inhibitors. 200,000 compounds, 0.01% hits. AID 1487; active = well fitted inhibition curve with a large enough effect in the signal ratio, with a control signal flat, not every such curve was filed as active; inconclusive = small, poorly fitted or top-dose-only effect, or effect the other way, or a change in a side signal; the % refers to the signal ratio
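S3 HeLa cells stably expressing lamin A-EGFP splicing minigene plus DsRed2, 600 cells/well, 48 h compound exposure at 37C. Laser-scanning cytometry; analysed as GFP (500-530 nm)/RFP (575-640 nm) total intensity ratio; 0.5% DMSO vehicle.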
miR-21 reporter: miR-21 reporter, rising signal; Potency, µM (titrated, usually from 38.3 µM); AID 2288; 340,000 tested, under 10 active; HeLa miR-21 FLuc reporter, luciferase, 48 h; active = well fitted rising curve with a large enough effect; inconclusive = small, poorly fitted or top-dose-only effect; inactive = no such curve, though single readings can be large or run the other way;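 note: miR-21 action dims this reporter so a rising signal means less miR-21 action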
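HeLa cells endogenously expressing miR-21, stably carrying CMV-driven firefly luciferase with a downstream miR-21 binding site, 2000 cells/well. Titrations up to approximately 40 uM, 48 hours; luciferase luminescence read.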
Large screens that a line does not name were inactive. Unless noted, calls follow the shape of the dose curve; as a rule, active = well fitted curve in the direction sought with a large enough effect; inconclusive = small, poorly fitted or top-dose-only effect, or another doubt; inactive = no such curve, though single readings can be large; an effect the other way counts as inactive or inconclusive.

O=C(NCc1ccccc1)c1c[nH]c2ccccc2c1=O	none (no result: ALDH1A1 inh, KDM4E inh, LMNA splice mod)
N#Cc1c2c(c(=S)n(-c3ccccc3)c1N)CCCC2	G9a inh 8.91µM, ALDH1A1 inh inconclusive, KDM4E inh inconclusive, Sfp PPTase inh 31.6µM
CN1C(=O)CCC(CCC(=O)O)(c2ccccc2O)C1=O (stereo unspecified)	none (no result: ALDH1A1 inh, KDM4E inh, LMNA splice mod)
Cc1cc(C)cc(N2C(=O)CSC2c2ccccn2)c1 (stereo unspecified)	none
O=C(Nc1ccc(F)cc1)C1CCN(S(=O)(=O)c2ccc3c(c2)CCCN3C(=O)C2CCC2)CC1	miR-21 reporter inconclusive (no result: ALDH1A1 inh, KDM4E inh, Sfp PPTase inh)
O=C(CN(C1CCCCC1)S(=O)(=O)c1ccccc1)N1CCCC1	none
O=C(CN(C1CCCCC1)C1CCCCC1)N1CCc2ccccc2C1	G9a inh 10µM, KDM4E inh inconclusive
COc1ccc(N=Nc2ccc(N)nc2N)cc1	G9a inh 28.2µM, KDM4E inh inconclusive, LMNA splice mod inconclusive
COc1ccc(N=Nc2c(N)n[nH]c2N)cc1	none (no result: G9a inh)
CCOC(=O)CCCc1ccc(/C(C)=N/NC(=S)NC)cc1	none (no result: ALDH1A1 inh, LMNA splice mod)
CCOC(=O)CCCc1ccc(/C(C)=N/NC(N)=S)cc1	Sfp PPTase inh 56.2µM (no result: G9a inh, ALDH1A1 inh, LMNA splice mod)
CC(=O)Oc1c(Br)cc(N(C(C)=O)S(=O)(=O)c2ccccc2)c2ccccc12	G9a inh 6.31µM, Sfp PPTase inh 35.5µM (no result: ALDH1A1 inh, KDM4E inh, LMNA splice mod)
COC(=O)c1ccc(C(=O)N(CCN(C)C)c2nc3c(Cl)cccc3s2)cc1	G9a inh 56.2µM, LMNA splice mod inconclusive
CN(C)CCN(C(=O)c1ccccc1Cl)c1nc2c(Cl)cccc2s1	G9a inh 10µM, ALDH1A1 inh 31.6µM, KDM4E inh inconclusive
CN(C)CCN(C(=O)c1cccc(Cl)c1)c1nc2c(Cl)cccc2s1	G9a inh 44.7µM
CCOc1cccc2sc(N(CCN(C)C)C(=O)c3ccc(Br)s3)nc12	LMNA splice mod inconclusive
CCN(CC)CCN(C(=O)c1ccc2c(c1)OCCO2)c1nc2c(Cl)cccc2s1	G9a inh 50.1µM, Sfp PPTase inh inconclusive (no result: ALDH1A1 inh, KDM4E inh, LMNA splice mod)
COc1ccccc1N1CCN(C(=O)Cn2ncc3c2-c2cc(C)ccc2OC3)CC1	miR-21 reporter inconclusive (no result: ALDH1A1 inh, KDM4E inh, Sfp PPTase inh, LMNA splice mod)
CC(NC(=O)c1cc(F)c(F)cc1Cl)C1CC2CCC1C2 (stereo unspecified)	none (no result: ALDH1A1 inh, KDM4E inh, LMNA splice mod)
CCC(C(=O)N1CCN(c2ccccc2F)CC1)n1nc(C)c2sc3ccccc3c2c1=O (stereo unspecified)	none (no result: ALDH1A1 inh, KDM4E inh, Sfp PPTase inh, LMNA splice mod)
CCOc1ccccc1-n1c(=S)sc2c(=O)n(-c3ccc(C)cc3)c(=S)[nH]c21	G9a inh 10µM, ALDH1A1 inh 7.94µM, Sfp PPTase inh 44.7µM (no result: LMNA splice mod)
CCn1c(=S)sc2c(=O)n(-c3ccccc3)c(=S)[nH]c21	G9a inh 10µM, ALDH1A1 inh inconclusive (no result: LMNA splice mod)
O=C(O)c1ccc2c(=O)n(-c3ccccc3)c(=S)[nH]c2c1	G9a inh inconclusive, KDM4E inh inconclusive (no result: ALDH1A1 inh, LMNA splice mod)
COc1ccccc1NC(=O)/C=C\c1ccco1	G9a inh 39.8µM, Sfp PPTase inh 56.2µM (no result: ALDH1A1 inh, KDM4E inh, LMNA splice mod)
COc1ccccc1NC(=S)NC(=O)/C=C/c1ccco1	G9a inh inconclusive, ALDH1A1 inh 25.1µM, KDM4E inh inconclusive, Sfp PPTase inh inconclusive
O=C(/C=C/c1ccco1)NC(=S)Nc1cc(-c2nc3ccccc3s2)ccc1Cl	Sfp PPTase inh inconclusive
Cc1ccc(-c2nc3ccccc3s2)cc1NC(=S)NC(=O)/C=C/c1ccco1	G9a inh 50.1µM, LMNA splice mod inconclusive
CCCCn1c(=O)c2oc3ccccc3c2n(Cc2ccc(C)cc2)c1=O	none (no result: ALDH1A1 inh, KDM4E inh, Sfp PPTase inh, LMNA splice mod)
CCOC(=O)C1CCN(C(=O)CCC2CCCC2)CC1	none (no result: ALDH1A1 inh, KDM4E inh, LMNA splice mod)
N#CC(C#N)=c1ccc2c(c1)NC1(CCCCC1)N=2	G9a inh 11.2µM, LMNA splice mod inconclusive, miR-21 reporter inconclusive
Cc1cccc(N=Nc2cnc(N)s2)c1	G9a inh 28.2µM (no result: LMNA splice mod)
CC12CCC(=O)N1C(C(=O)Nc1nnc(SCc3ccccc3F)s1)CS2 (stereo unspecified)	G9a inh 79.4µM (no result: ALDH1A1 inh, KDM4E inh, LMNA splice mod)
CC12CCC(=O)N1C(C(=O)Nc1nc3c(F)cc(F)cc3s1)CS2 (stereo unspecified)	G9a inh 44.7µM (no result: ALDH1A1 inh, KDM4E inh, LMNA splice mod)
Cc1cc[n+](CC(=O)c2ccccc2)c2ccccc12	none
Cc1sc2ccccc2[n+]1CCC(C)S(=O)(=O)[O-] (stereo unspecified)	Sfp PPTase inh 44.7µM
